The structures appear in SMILES notation.

By UniProt entry, the sequences of proteins in these tests, tags left out. Residues count along the entry.
UniProt O00748, 27-559: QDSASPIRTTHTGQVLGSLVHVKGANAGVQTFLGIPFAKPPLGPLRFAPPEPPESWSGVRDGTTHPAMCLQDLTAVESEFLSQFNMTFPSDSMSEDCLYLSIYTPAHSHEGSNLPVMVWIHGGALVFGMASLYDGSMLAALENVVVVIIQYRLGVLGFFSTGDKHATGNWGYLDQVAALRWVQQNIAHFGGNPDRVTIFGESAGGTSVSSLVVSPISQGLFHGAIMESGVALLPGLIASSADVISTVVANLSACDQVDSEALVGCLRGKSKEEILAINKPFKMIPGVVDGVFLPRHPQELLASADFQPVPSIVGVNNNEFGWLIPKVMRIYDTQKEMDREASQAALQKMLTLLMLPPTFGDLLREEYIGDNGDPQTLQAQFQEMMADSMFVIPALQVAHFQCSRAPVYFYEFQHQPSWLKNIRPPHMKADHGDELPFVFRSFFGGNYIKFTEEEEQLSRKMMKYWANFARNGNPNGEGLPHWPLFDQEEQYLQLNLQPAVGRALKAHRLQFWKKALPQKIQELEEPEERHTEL

The values that follow come from patent US20230414602A1, “PHARMACEUTICAL COMPOSITION COMPRISING INSOLUBLE CAMPTOTHECIN COMPOUND-CONTAINING NANOPARTICLE FOR TREATMENT OF CANCER AND COMBINATION THERAPY THEREOF” (SNBioScience Inc., priority 2020, published 2023).

Data set [1] is described as follows: Body weight of A549 xenograft mice (Example 4). It counts as in vivo, BALB/c nu/nu male mice. As to conditions: docetaxel 5->10 mg/kg, SNB-101 20 mg/kg (as SN-38), i.v. Q1W x 5.
The target of data set [2] is carboxylesterase 2 (CES2) (Homo sapiens, UniProt O00748). As to conditions: cited from earlier work.

As for `CC(=O)O[C@@]12CO[C@@H]1C[C@H](O)[C@@]1(C)C(=O)[C@H](O)C3=C(C)[C@@H](OC(=O)[C@H](O)[C@@H](NC(=O)OC(C)(C)C)c4ccccc4)C[C@@](O)([C@@H](OC(=O)c4ccccc4)[C@H]21)C3(C)C` [Docetaxel, docetaxel], the “Body weight at the end of the test (day 37)” value in data set [1] is 19.10 g.

In the case of `CCc1c2c(nc3ccc(OC(=O)N4CCC(N5CCCCC5)CC4)cc13)-c1cc3c(c(=O)n1C2)COC(=O)[C@]3(O)CC` [irinotecan], the “variation of conversion rate among patients” value in data set [2] (among patients) is “more than 4 times”. In data set [2] (in the body), the “conversion rate of irinotecan to SN-38 in the body” value was 2-8%.
